In US20260272952A1, “CANNABINOIDS FOR TREATING NEUROINFLAMMATION” (Lundquist Institute for Biomedical Innovation at …, priority 2022, published 2026):

Test system: Sanfilippo B mice (Naglu−/−)
Test: Pilot in vivo study of CBD on cellular neuroinflammation (CD68 and GFAP brain immunostaining)
Conditions: 9 months old Naglu−/− mice; 100 mg/kg CBD in sesame oil, oral gavage, once/day, 4 weeks; brain sections; vs vehicle

Substance: Cannabidiol [CBD]
- astrocyte activation (percentage immunoreactivity of GFAP): decreased
- microglia activation (percentage immunoreactivity of CD68): decreased
